Protein sequences, listed by entry. Tags and fused reporters are not part of them. Residues count along the entry.
UniProt Q9UM73, 19-1620 L1196M/G1202R limits assumed: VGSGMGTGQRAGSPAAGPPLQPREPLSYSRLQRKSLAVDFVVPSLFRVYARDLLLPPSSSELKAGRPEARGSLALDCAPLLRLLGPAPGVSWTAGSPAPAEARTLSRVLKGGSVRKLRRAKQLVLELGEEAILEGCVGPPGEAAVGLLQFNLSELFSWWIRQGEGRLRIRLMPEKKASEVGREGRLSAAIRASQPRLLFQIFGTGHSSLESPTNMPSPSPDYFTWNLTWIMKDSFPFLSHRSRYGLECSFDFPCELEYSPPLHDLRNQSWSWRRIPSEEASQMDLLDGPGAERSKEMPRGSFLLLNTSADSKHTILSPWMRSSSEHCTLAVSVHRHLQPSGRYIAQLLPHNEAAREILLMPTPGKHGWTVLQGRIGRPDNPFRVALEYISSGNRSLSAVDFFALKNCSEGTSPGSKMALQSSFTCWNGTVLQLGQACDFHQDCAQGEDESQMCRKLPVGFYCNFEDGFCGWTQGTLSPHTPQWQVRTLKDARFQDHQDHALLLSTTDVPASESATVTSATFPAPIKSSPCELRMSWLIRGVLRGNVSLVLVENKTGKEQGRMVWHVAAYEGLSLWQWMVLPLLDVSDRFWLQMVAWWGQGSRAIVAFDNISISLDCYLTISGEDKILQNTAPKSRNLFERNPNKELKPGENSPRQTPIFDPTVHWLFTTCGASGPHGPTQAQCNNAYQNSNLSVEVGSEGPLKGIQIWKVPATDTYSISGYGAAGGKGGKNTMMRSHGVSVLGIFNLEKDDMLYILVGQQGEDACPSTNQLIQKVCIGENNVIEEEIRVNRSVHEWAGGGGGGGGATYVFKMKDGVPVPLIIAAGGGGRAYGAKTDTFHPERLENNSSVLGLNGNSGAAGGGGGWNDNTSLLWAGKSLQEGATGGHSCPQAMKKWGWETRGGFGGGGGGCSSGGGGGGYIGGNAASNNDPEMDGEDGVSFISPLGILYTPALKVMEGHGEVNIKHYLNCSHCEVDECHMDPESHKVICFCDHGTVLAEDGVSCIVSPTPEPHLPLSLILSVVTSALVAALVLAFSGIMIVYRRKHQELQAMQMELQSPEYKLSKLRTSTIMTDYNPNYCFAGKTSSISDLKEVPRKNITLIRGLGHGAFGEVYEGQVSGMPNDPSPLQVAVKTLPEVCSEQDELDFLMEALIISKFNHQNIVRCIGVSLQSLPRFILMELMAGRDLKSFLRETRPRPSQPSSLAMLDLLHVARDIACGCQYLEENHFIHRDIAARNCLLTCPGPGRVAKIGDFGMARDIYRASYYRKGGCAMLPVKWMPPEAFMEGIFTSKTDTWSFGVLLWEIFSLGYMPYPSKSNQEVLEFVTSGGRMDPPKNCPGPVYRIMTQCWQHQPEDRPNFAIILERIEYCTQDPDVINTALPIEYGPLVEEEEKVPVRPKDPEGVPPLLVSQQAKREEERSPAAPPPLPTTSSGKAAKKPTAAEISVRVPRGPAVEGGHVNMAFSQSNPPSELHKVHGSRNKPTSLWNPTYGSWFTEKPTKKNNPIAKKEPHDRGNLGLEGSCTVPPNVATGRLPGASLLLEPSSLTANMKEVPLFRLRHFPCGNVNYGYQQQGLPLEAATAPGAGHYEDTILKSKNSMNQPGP
UniProt Q9UM73, 19-1620 I1171N/D1203N limits assumed: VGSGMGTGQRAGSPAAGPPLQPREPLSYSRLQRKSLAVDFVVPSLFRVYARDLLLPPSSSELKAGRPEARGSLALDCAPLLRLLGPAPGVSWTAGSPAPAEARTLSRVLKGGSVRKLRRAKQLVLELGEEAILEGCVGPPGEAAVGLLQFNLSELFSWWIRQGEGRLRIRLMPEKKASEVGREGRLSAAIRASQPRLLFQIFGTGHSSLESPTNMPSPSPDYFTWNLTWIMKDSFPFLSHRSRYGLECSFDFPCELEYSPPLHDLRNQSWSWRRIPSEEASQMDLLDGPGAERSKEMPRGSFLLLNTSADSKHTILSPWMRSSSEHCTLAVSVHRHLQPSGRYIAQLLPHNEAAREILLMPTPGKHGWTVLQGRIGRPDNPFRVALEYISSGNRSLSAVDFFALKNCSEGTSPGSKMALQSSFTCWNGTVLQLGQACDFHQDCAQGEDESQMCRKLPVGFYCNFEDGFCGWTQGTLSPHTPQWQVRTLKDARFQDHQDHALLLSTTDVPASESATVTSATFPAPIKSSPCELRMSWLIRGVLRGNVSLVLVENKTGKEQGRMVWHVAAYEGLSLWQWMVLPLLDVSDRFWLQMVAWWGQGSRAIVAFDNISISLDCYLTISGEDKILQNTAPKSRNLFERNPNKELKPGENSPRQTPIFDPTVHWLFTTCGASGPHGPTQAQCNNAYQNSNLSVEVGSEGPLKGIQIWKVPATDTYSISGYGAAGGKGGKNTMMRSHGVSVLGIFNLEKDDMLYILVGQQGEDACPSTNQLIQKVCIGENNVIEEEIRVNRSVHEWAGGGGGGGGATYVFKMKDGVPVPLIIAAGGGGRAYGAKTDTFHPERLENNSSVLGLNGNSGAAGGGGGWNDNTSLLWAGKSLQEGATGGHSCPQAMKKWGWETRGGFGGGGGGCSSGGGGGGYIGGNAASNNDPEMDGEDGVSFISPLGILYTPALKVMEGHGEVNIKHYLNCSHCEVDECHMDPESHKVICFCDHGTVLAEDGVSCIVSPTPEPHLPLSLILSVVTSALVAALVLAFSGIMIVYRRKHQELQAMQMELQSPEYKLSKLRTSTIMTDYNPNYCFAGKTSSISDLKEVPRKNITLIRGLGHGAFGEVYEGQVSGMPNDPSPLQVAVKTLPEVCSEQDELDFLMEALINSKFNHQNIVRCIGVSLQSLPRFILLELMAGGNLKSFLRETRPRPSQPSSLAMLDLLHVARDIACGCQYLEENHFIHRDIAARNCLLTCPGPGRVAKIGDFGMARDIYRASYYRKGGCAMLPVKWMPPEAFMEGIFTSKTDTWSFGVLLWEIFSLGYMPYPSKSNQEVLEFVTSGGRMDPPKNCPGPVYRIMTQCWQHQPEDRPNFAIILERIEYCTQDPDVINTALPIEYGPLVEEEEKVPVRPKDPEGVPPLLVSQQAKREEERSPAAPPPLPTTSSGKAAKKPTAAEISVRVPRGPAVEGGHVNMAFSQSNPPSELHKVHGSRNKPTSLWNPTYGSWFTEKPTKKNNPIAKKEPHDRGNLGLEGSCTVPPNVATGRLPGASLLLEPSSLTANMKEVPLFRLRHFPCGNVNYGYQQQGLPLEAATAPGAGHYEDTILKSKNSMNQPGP

According to patent publication EP4831180A1, “NOVEL KINASE INHIBITOR” (dated 2026):

Experiments:
[1] = system: Baf3 EML4-ALK V1^G1202R/L1196M cells; settings: read-out: BaF3 EML4-ALK^G1102R/L1196M, IC50; 3 days incubation, Cell-Titer Glo
[2] = system: Baf3 EML4-ALK V1^I1171N/D1203N cells; settings: read-out: BaF3 EML4-ALK^I1171N/D1203N IC50; 3 days incubation, Cell-Titer Glo
His-ALK^G1202R/L1196M = His-ALK^G1202R/L1196M (Homo sapiens, UniProt Q9UM73, G1202R/L1196M); experiment: ALK G1202R/L1196M compound mutant kinase inhibitory activity assay (HTRF); settings: read-out: ALK^G1202R/L1196M Enzyme, IC50, ATP 4 µM, enzyme 0.5 nM, 1 hour at 23 °C
His-ALK^I1171N/D1203N = His-ALK^I1171N/D1203N (Homo sapiens, UniProt Q9UM73, D1203N/I1171N); experiment: ALK I1171N/D1203N compound mutant kinase inhibitory activity assay (HTRF); settings: read-out: ALK^I1171N/D1203N Enzyme, IC50, ATP 1 µM, enzyme 0.3 nM, 1 hour at 23 °C

| Compound | IC50 [1] | IC50 [2] | IC50 (His-ALK^G1202R/L1196M) | IC50 (His-ALK^I1171N/D1203N) |
| --- | --- | --- | --- | --- |
| CCn1nc(C#Cc2cnco2)c2c1-c1cnc(N)c(c1)O[C@H](C)c1cc(F)ccc1-c1nn(C)cc1C2 | < 10 nM | < 10 nM | < 5 nM | < 5 nM |
| CCn1nc(C#Cc2cnc(CO)nc2)c2c1-c1cnc(N)c(c1)O[C@H](C)c1cc(F)ccc1-c1nn(C)cc1C2 | < 10 nM | < 10 nM | < 5 nM | < 5 nM |
| CCn1nc(C#CCCN)c2c1-c1cnc(N)c(c1)O[C@H](C)c1cc(F)ccc1-c1nn(C)cc1C2 | < 10 nM | < 10 nM | < 5 nM | < 5 nM |
| CCn1nc(C#CC2COC2)c2c1-c1cnc(N)c(c1)O[C@H](C)c1cc(F)ccc1-c1nn(C)cc1C2 | < 10 nM | < 10 nM | < 5 nM | < 5 nM |
| CCn1nc(C#C[C@@H]2CCOC2)c2c1-c1cnc(N)c(c1)O[C@H](C)c1cc(F)ccc1-c1nn(C)cc1C2 | < 10 nM | < 10 nM | < 5 nM | < 5 nM |
| CCn1nc(C#CCN)c2c1-c1cnc(N)c(c1)O[C@H](C)c1cc(F)ccc1-c1nn(C)cc1C2 | < 10 nM |  | < 5 nM | < 5 nM |
| CCn1nc(C#CCn2ccnc2)c2c1-c1cnc(N)c(c1)O[C@H](C)c1cc(F)ccc1-c1nn(C)cc1C2 | < 10 nM |  | < 5 nM | < 5 nM |
| CCn1nc(C#Cc2ccc(=O)n(C)c2)c2c1-c1cnc(N)c(c1)O[C@H](C)c1cc(F)ccc1-c1nn(C)cc1C2 | < 10 nM | < 10 nM | < 5 nM | < 5 nM |
| CCn1nc(C#CCCOC)c2c1-c1cnc(N)c(c1)O[C@H](C)c1cc(F)ccc1-c1nn(C)cc1C2 | < 10 nM | < 10 nM | < 5 nM | < 5 nM |
| CCn1nc(C#CC2CCCO2)c2c1-c1cnc(N)c(c1)O[C@H](C)c1cc(F)ccc1-c1nn(C)cc1C2 (stereo partly drawn) | < 10 nM | < 10 nM | < 5 nM | < 5 nM |
| CCn1nc(C#CC2CCN(S(C)(=O)=O)CC2)c2c1-c1cnc(N)c(c1)O[C@H](C)c1cc(F)ccc1-c1nn(C)cc1C2 | < 10 nM | < 10 nM | < 5 nM | < 5 nM |
| CCn1nc(C#CCC(C)(C)O)c2c1-c1cnc(N)c(c1)O[C@H](C)c1cc(F)ccc1-c1nn(C)cc1C2 | < 10 nM |  | < 5 nM | < 5 nM |
| (19R)-3-ethyl-16-fluoro-10,19-dimethyl-5-((1-methyl imidazol-4-yl)ethyny 1)-20-oxa-3,4,10,11,23-pentaazapentacyclo[19.3.1.0^8,12.0^13,18.0^2,6]pentacosa-1(25),2(6),4,8(9),1 1,13(18),14,16,21(22),23-decaen-22-amine | < 10 nM | < 10 nM | < 5 nM | < 5 nM |
| CCn1nc(C#CCCO)c2c1-c1cnc(N)c(c1)O[C@H](C)c1cc(F)ccc1-c1nn(C)cc1C2 | < 10 nM |  | < 5 nM | < 5 nM |
| CCn1nc(C#Cc2cnc(N)nc2)c2c1-c1cnc(N)c(c1)O[C@H](C)c1cc(F)ccc1-c1nn(C)cc1C2 | < 10 nM | < 10 nM | < 5 nM | < 5 nM |
| CCn1nc(C#C[C@@H]2COCCN2)c2c1-c1cnc(N)c(c1)O[C@H](C)c1cc(F)ccc1-c1nn(C)cc1C2 | < 10 nM | < 10 nM | < 5 nM | < 5 nM |
| CCn1nc(C#CCN2CCOCC2)c2c1-c1cnc(N)c(c1)O[C@H](C)c1cc(F)ccc1-c1nn(C)cc1C2 | < 10 nM | < 10 nM | < 5 nM | < 5 nM |
| CCn1nc(C#C[C@@H](C)O)c2c1-c1cnc(N)c(c1)O[C@H](C)c1cc(F)ccc1-c1nn(C)cc1C2 | < 10 nM | < 10 nM | < 5 nM | < 5 nM |
| CCn1nc(C#C[C@H](C)O)c2c1-c1cnc(N)c(c1)O[C@H](C)c1cc(F)ccc1-c1nn(C)cc1C2 | < 10 nM | < 10 nM | < 5 nM | < 5 nM |
| CCn1nc(C#CC(=O)N2CCCCC2)c2c1-c1cnc(N)c(c1)O[C@H](C)c1cc(F)ccc1-c1nn(C)cc1C2 |  |  | < 5 nM | < 5 nM |
| CCn1nc(C#CC2CCOCC2)c2c1-c1cnc(N)c(c1)O[C@H](C)c1cc(F)ccc1-c1nn(C)cc1C2 | < 10 nM | < 10 nM | < 5 nM | < 5 nM |
| CCn1nc(C#CCN2CCN(CCO)CC2)c2c1-c1cnc(N)c(c1)O[C@H](C)c1cc(F)ccc1-c1nn(C)cc1C2 | < 10 nM | < 10 nM | < 5 nM | < 5 nM |
| CCn1nc(C#CCCC(C)(C)O)c2c1-c1cnc(N)c(c1)O[C@H](C)c1cc(F)ccc1-c1nn(C)cc1C2 | < 10 nM | < 10 nM | < 5 nM | < 5 nM |
| CCn1nc(C#Cc2cnn(C)c2)c2c1-c1cnc(N)c(c1)O[C@H](C)c1cc(F)ccc1-c1nn(C)cc1C2 | < 10 nM | < 10 nM | < 5 nM | < 5 nM |
| CCn1nc(C#Cc2ccn(C)n2)c2c1-c1cnc(N)c(c1)O[C@H](C)c1cc(F)ccc1-c1nn(C)cc1C2 |  |  | < 5 nM | < 5 nM |

| Compound | IC50 [1] | IC50 [2] | IC50 (His-ALK^G1202R/L1196M) | IC50 (His-ALK^I1171N/D1203N) |
| --- | --- | --- | --- | --- |
| C=C(C)c1nn(CC)c2c1Cc1cn(C)nc1-c1ccc(F)cc1[C@@H](C)Oc1cc-2cnc1N |  |  | < 5 nM | < 5 nM |
| CCn1nc(C#CCCCO)c2c1-c1cnc(N)c(c1)O[C@H](C)c1cc(F)ccc1-c1nn(C)cc1C2 | < 10 nM |  | < 5 nM | < 5 nM |
| CCn1nc(C#CC(=O)NC2CC2)c2c1-c1cnc(N)c(c1)O[C@H](C)c1cc(F)ccc1-c1nn(C)cc1C2 | < 10 nM |  | < 5 nM | < 5 nM |
| CCn1nc(N=S(C)(C)=O)c2c1-c1cnc(N)c(c1)O[C@H](C)c1cc(F)ccc1-c1nn(C)cc1C2 | < 10 nM |  | < 5 nM | < 5 nM |
| CCn1nc(C#CC(C)(C)N2CCOCC2)c2c1-c1cnc(N)c(c1)O[C@H](C)c1cc(F)ccc1-c1nn(C)cc1C2 | < 10 nM | < 10 nM | < 5 nM |  |
| CCn1nc(C#CC2CCCNC2)c2c1-c1cnc(N)c(c1)O[C@H](C)c1cc(F)ccc1-c1nn(C)cc1C2 (stereo partly drawn) | < 10 nM |  | < 5 nM | < 5 nM |
| CCn1nc(C#CC(C)(C)O)c2c1-c1cnc(N)c(c1)O[C@H](C)c1cc(F)ccc1-c1nn(C)cc1C2 | < 10 nM | < 10 nM | < 5 nM |  |
| CCn1nc(C#Cc2ccc(CO)cn2)c2c1-c1cnc(N)c(c1)O[C@H](C)c1cc(F)ccc1-c1nn(C)cc1C2 | < 10 nM |  | < 5 nM | < 5 nM |
| C#Cc1nn(CC)c2c1Cc1cc(C)cnc1-c1ccc(F)cc1[C@@H](C)Oc1cc-2cnc1N | < 10 nM |  | < 5 nM |  |
| CCn1nc(N=S2(=O)CCCC2)c2c1-c1cnc(N)c(c1)O[C@H](C)c1cc(F)ccc1-c1nn(C)cc1C2 | < 10 nM |  | < 5 nM |  |
| CCn1nc(C#Cc2nccs2)c2c1-c1cnc(N)c(c1)O[C@H](C)c1cc(F)ccc1-c1nn(C)cc1C2 | < 10 nM |  | < 5 nM |  |
| CCn1nc(C#CC(O)C(F)(F)F)c2c1-c1cnc(N)c(c1)O[C@H](C)c1cc(F)ccc1-c1nn(C)cc1C2 (stereo partly drawn) | < 10 nM |  | < 5 nM | < 5 nM |
| CCn1nc(C#Cc2cncc(N)n2)c2c1-c1cnc(N)c(c1)O[C@H](C)c1cc(F)ccc1-c1nn(C)cc1C2 | < 10 nM |  | < 5 nM |  |
| CCn1nc(C#Cc2cscn2)c2c1-c1cnc(N)c(c1)O[C@H](C)c1cc(F)ccc1-c1nn(C)cc1C2 | < 10 nM |  | < 5 nM |  |
| CCn1nc(C#Cc2cccn(C)c2=O)c2c1-c1cnc(N)c(c1)O[C@H](C)c1cc(F)ccc1-c1nn(C)cc1C2 | < 10 nM |  | < 5 nM |  |
| CCn1nc(C#Cc2cccc(CO)n2)c2c1-c1cnc(N)c(c1)O[C@H](C)c1cc(F)ccc1-c1nn(C)cc1C2 | < 10 nM |  | < 5 nM | < 5 nM |
| CCn1nc(C#Cc2ncco2)c2c1-c1cnc(N)c(c1)O[C@H](C)c1cc(F)ccc1-c1nn(C)cc1C2 |  |  | < 5 nM | < 5 nM |
| C#Cc1nn(CC)c2c1Cc1cc(F)cnc1-c1ccc(F)cc1[C@@H](C)Oc1cc-2cnc1N | < 10 nM |  | < 5 nM |  |
| CCn1nc(C#Cc2csc(N)n2)c2c1-c1cnc(N)c(c1)O[C@H](C)c1cc(F)ccc1-c1nn(C)cc1C2 | < 10 nM |  | < 5 nM |  |
| CCn1nc(C#CC2COCCN2C)c2c1-c1cnc(N)c(c1)O[C@H](C)c1cc(F)ccc1-c1nn(C)cc1C2 (stereo partly drawn) | < 10 nM | < 10 nM | < 5 nM |  |
| CCOC/C=C/c1nn(CC)c2c1Cc1cn(C)nc1-c1ccc(F)cc1[C@@H](C)Oc1cc-2cnc1N | < 10 nM |  | < 5 nM |  |
| CCn1nc(C#CC(C)(C)NC(=O)OC)c2c1-c1cnc(N)c(c1)O[C@H](C)c1cc(F)ccc1-c1nn(C)cc1C2 | < 10 nM |  | < 5 nM |  |
| CCn1nc(C#Cc2cncn2C2CC2)c2c1-c1cnc(N)c(c1)O[C@H](C)c1cc(F)ccc1-c1nn(C)cc1C2 | < 10 nM |  | < 5 nM |  |
| CCn1nc(C#Cc2cccnc2)c2c1-c1cnc(N)c(c1)O[C@H](C)c1cc(F)ccc1-c1nn(C)cc1C2 |  |  | < 5 nM | < 5 nM |
| CCn1nc(C#CCO)c2c1-c1cnc(N)c(c1)O[C@H](C)c1cc(F)ccc1-c1nn(C)cc1C2 | < 10 nM |  | < 5 nM | < 5 nM |
